Data published in US7488745B2, “Compounds for the treatment of inflammatory disorders” (Schering Corporation, priority 2004, dated 2009).

Amino acid sequences for entries named in this document (tags omitted). Residues count along the entry.
UniProt P78536, 215-477 S266A/N452Q limits assumed: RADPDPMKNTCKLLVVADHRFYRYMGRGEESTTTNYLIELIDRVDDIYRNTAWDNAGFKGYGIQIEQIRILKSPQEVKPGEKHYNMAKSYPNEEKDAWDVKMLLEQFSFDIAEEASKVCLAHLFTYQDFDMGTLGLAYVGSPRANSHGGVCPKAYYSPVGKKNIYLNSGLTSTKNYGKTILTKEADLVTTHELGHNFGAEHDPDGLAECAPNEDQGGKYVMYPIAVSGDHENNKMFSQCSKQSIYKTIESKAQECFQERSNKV

Target: purified catalytic domain of recombinant human TACE (rhTACEc) (Homo sapiens, UniProt P78536, N452Q/S266A)
Test: TACE kinetic assay: cleavage of internally quenched peptide substrate SPDL-3 (fluorescence)
Conditions: Ki (nM), TABLE 6000; Ki printed as class symbols A-D

Compound | Ki [nM]
COc1ccc2c(c1)C(=O)N(C[C@@]1(c3ccc(Oc4ccc(N5CCOCC5)nc4)cc3)NC(=O)NC1=O)C2 [Compound 9619] | < 10
COc1ccc2c(c1)C(=O)N(C[C@@]1(c3ccc(OC(F)F)cc3)NC(=O)NC1=O)C2 [Compound 9624] | < 10
COCCOc1ccc([C@]2(CN3Cc4ccc(OC)cc4C3=O)NC(=O)NC2=O)cc1 [Compound 9625] | < 10
COc1ccc2c(c1)C(=O)N(C[C@@]1(c3ccc(OCC4CCOCC4)cc3)NC(=O)NC1=O)C2 [Compound 9626] | < 10
COc1ccc2c(c1)C(=O)N(C[C@@]1(c3ccc(OCc4ccccn4)cc3)NC(=O)NC1=O)C2 [Compound 9627] | < 10
COc1ccc2c(c1)C(=O)N(C[C@@]1(c3ccc(OC(C)C)cc3)NC(=O)NC1=O)C2 [Compound 9628] | < 10
COc1ccc2c(c1)C(=O)N(C[C@@]1(c3ccc(OCc4ccncc4)cc3)NC(=O)NC1=O)C2 [Compound 9633] | < 10
COc1ccc2c(c1)C(=O)N(C[C@@]1(c3ccc(OCc4ccc5ccccc5n4)cc3)NC(=O)NC1=O)C2 [Compound 9634] | < 10
COc1ccc2c(c1)C(=O)N(CC1(C3CC3)NC(=O)NC1=O)C2 (stereo not shown) [Compound 9636] | 10 to 100
COc1ccc2c(c1)C(=O)N(CC1(c3ccc(-c4cccnc4)nc3)NC(=O)NC1=O)C2 (stereo not shown) [Compound 9650] | < 10
COc1ccc2c(c1)C(=O)N(CC1(c3ccc(Br)cn3)NC(=O)NC1=O)C2 (stereo not shown) [Compound 9651] | < 10
COc1ccc2c(c1)C(=O)N(CC1(c3ccccn3)NC(=O)NC1=O)C2 (stereo not shown) [Compound 9652] | < 10
COc1ccc2c(c1)C(=O)N(CC1(c3cnc(-c4cccnc4)nc3)NC(=O)NC1=O)C2 (stereo not shown) [Compound 9653] | < 10
CC#CCOc1ccc2c(c1)C(=O)N(C[C@@]1(c3ccc(-c4cnn(C(C)C)c4)cc3)NC(=O)NC1=O)C2 [Compound 9700] | < 10
CC#CCOc1ccc2c(c1)C(=O)N(C[C@@]1(c3ccc(-c4ccc5c(cnn5C)c4)cc3)NC(=O)NC1=O)C2 [Compound 9701] | < 10
CC#CCOc1ccc2c(c1)C(=O)N(C[C@@]1(c3ccc(-c4ccc5nn(C)cc5c4)cc3)NC(=O)NC1=O)C2 [Compound 9702] | < 10
COc1ccc2c(c1)C(=O)N(C[C@@]1(c3ccc(-c4ccc5nccn5c4)cc3)NC(=O)NC1=O)C2 [Compound 9703] | < 10
COc1ccc2c(c1)C(=O)N(C[C@@]1(c3ccc(-c4ccc5c(c4)c(C)nn5C)cc3)NC(=O)NC1=O)C2 [Compound 9704] | < 10
COc1ccc2c(c1)C(=O)N(C[C@@]1(c3ccc(-c4ccc5nn(C)c(C)c5c4)cc3)NC(=O)NC1=O)C2 [Compound 9705] | < 10
COc1ccc2c(c1)C(=O)N(C[C@@]1(c3ccc(-c4ccc5c(ccn5C)c4)cc3)NC(=O)NC1=O)C2 [Compound 9706] | < 10
COc1ccc2c(c1)C(=O)N(C[C@@]1(c3ccc(-c4ccc5nc(C(F)(F)F)cn5c4)cc3)NC(=O)NC1=O)C2 [Compound 9707] | < 10
COc1ccc2c(c1)C(=O)N(C[C@@]1(c3ccc(-c4cnn5ccccc45)cc3)NC(=O)NC1=O)C2 [Compound 9708] | < 10
Cn1cc(-c2ccc([C@]3(CN4Cc5ccc(OCc6ccccc6)cc5C4=O)NC(=O)NC3=O)cc2)cn1 [Compound 9709] | < 10

Compound | Ki [nM]
COc1ccc2c(c1)C(=O)N(C[C@@]1(c3ccc(-c4ccc5cnn(C)c5c4)cc3)NC(=O)NC1=O)C2 [Compound 9710] | < 10
COc1ccc2c(c1)C(=O)N(C[C@@]1(c3ccc(-c4ccc5cn[nH]c5c4)cc3)NC(=O)NC1=O)C2 [Compound 9712] | < 10
COc1ccc2c(c1)C(=O)N(C[C@@]1(c3ccc(-c4ccc5nn(C)nc5c4)cc3)NC(=O)NC1=O)C2 [Compound 9714] | < 10
COc1ccc2c(c1)C(=O)N(C[C@@]1(c3ccc(-c4ccc5c(c4)nnn5C)cc3)NC(=O)NC1=O)C2 [Compound 9715] | < 10
C#CC(C)(C)Oc1ccc2c(c1)C(=O)N(C[C@@]1(c3ccc(-c4cnn(C)c4)cc3)NC(=O)NC1=O)C2 [Compound 9716] | 100 to 1000
COc1ccc2c(c1)C(=O)N(C[C@@]1(c3ccc(-c4cn(C)nc4C#N)cc3)NC(=O)NC1=O)C2 [Compound 9717] | < 10
COc1ccc2c(c1)C(=O)N(C[C@@]1(c3ccc(-c4cc(C)c5nc[nH]c5c4)cc3)NC(=O)NC1=O)C2 [Compound 9731] | < 10
COc1ccc2c(c1)C(=O)N(C[C@@]1(c3ccc(-c4cc(C)c5nn(CC6CC6)cc5c4)cc3)NC(=O)NC1=O)C2 [Compound 9732] | < 10
COc1ccc2c(c1)C(=O)N(C[C@@]1(c3ccc(-c4cc(C)c5c(cnn5CC5CC5)c4)cc3)NC(=O)NC1=O)C2 [Compound 9733] | 10 to 100
COc1ccc2c(c1)C(=O)N(C[C@@]1(c3ccc(-c4cc(C)c5nn(C(C)C)cc5c4)cc3)NC(=O)NC1=O)C2 [Compound 9734] | < 10
COc1ccc2c(c1)C(=O)N(C[C@@]1(c3ccc(-c4cc(C)c5c(cnn5C(C)C)c4)cc3)NC(=O)NC1=O)C2 [Compound 9735] | < 10
COc1ccc2c(c1)C(=O)N(C[C@@]1(c3ccc(-c4cc(C)c5nn(C)cc5c4)cc3)NC(=O)NC1=O)C2 [Compound 9736] | < 10
COc1ccc2c(c1)C(=O)N(C[C@@]1(c3ccc(-c4cc(C)c5c(cnn5C)c4)cc3)NC(=O)NC1=O)C2 [Compound 9737] | < 10
COc1ccc2c(c1)C(=O)N(C[C@@]1(c3ccc(-c4cc(C)c5ncn(C)c5c4)cc3)NC(=O)NC1=O)C2 [Compound 9738] | < 10
Cn1cc2cc(-c3ccc([C@]4(CN5Cc6ccc(OC(F)F)cc6C5=O)NC(=O)NC4=O)cc3)ccc2n1 [Compound 9739] | < 10
Cn1ncc2cc(-c3ccc([C@]4(CN5Cc6ccc(OC(F)F)cc6C5=O)NC(=O)NC4=O)cc3)ccc21 [Compound 9740] | < 10
O=C1CSc2c(cccc2-c2ccc([C@]3(CN4Cc5ccc(F)cc5C4=O)NC(=O)NC3=O)cc2)N1 [Compound 9741] | < 10
COc1ccc2c(c1)C(=O)N(C[C@@]1(c3ccc(-c4ccc5c(cnn5C(C)C)c4)cc3)NC(=O)NC1=O)C2 [Compound 9742] | < 10
COc1ccc2c(c1)C(=O)N(C[C@@]1(c3ccc(-c4ccc5nn(CC6CC6)cc5c4)cc3)NC(=O)NC1=O)C2 [Compound 9743] | < 10
COc1ccc2c(c1)C(=O)N(C[C@@]1(c3ccc(-c4ccc5c(cnn5CC5CC5)c4)cc3)NC(=O)NC1=O)C2 [Compound 9744] | < 10
COc1ccc2c(c1)C(=O)N(C[C@@]1(c3ccc(-c4ccc5nn(C(C)C)cc5c4)cc3)NC(=O)NC1=O)C2 [Compound 9745] | < 10
O=C1NC(=O)[C@](CN2Cc3ccc(F)cc3C2=O)(c2ccc(-c3ccc(-n4ccnc4)cc3)cc2)N1 [Compound 9746] | < 10
CC#CCOc1ccc2c(c1)C(=O)N(C[C@@]1(c3ccc(-c4ccc5c(cnn5CC5CC5)c4)cc3)NC(=O)NC1=O)C2 [Compound 9748] | 10 to 100

Compound | Ki [nM]
CC#CCOc1ccc2c(c1)C(=O)N(C[C@@]1(c3ccc(-c4ccc5nn(CC6CC6)cc5c4)cc3)NC(=O)NC1=O)C2 [Compound 9749] | < 10
COc1ccc2c(c1)C(=O)N(C[C@@]1(c3ccc(-c4ccc(-n5ccnc5)cc4)cc3)NC(=O)NC1=O)C2 [Compound 9750] | < 10
CC#CCOc1ccc2c(c1)C(=O)N(C[C@@]1(c3ccc(-c4ccc5nn(C(C)C)cc5c4)cc3)NC(=O)NC1=O)C2 [Compound 9751] | < 10
Cn1nnc(-c2ccccc2-c2ccc(C3(CN4Cc5ccc(F)cc5C4=O)NC(=O)NC3=O)cc2)n1 (stereo not shown) [Compound 9752] | < 10
COc1ccc2c(c1)C(=O)N(C[C@@]1(c3ccc(-c4ccc5cnoc5c4)cc3)NC(=O)NC1=O)C2 [Compound 9754] | < 10
COc1ccc2c(c1)C(=O)N(C[C@@]1(c3ccc(-c4ccccc4-c4nnn(C)n4)cc3)NC(=O)NC1=O)C2 [Compound 9755] | < 10
COc1ccc2c(c1)C(=O)N(C[C@@]1(c3ccc(-c4ccccc4-c4nnnn4C)cc3)NC(=O)NC1=O)C2 [Compound 9756] | < 10
COc1ccc2c(c1)C(=O)N(C[C@@]1(c3ccc(-c4nccc(C(F)(F)F)n4)cc3)NC(=O)NC1=O)C2 [Compound 9757] | < 10
COc1ccc2c(c1)C(=O)N(C[C@@]1(c3ccc(-c4cnc(OC)nc4OC)cc3)NC(=O)NC1=O)C2 [Compound 9758] | < 10
COc1ccc2c(c1)C(=O)N(C[C@@]1(c3ccc(-c4cncc(-c5nnn(C)n5)c4)cc3)NC(=O)NC1=O)C2 [Compound 9759] | < 10
COc1ccc2c(c1)C(=O)N(C[C@@]1(c3ccc(-c4cccc5c4SCC(=O)N5)cc3)NC(=O)NC1=O)C2 [Compound 9760] | < 10
CC#CCOc1ccc2c(c1)C(=O)N(C[C@]1(c3ccc(-c4cc(C)ccn4)cc3)C(=O)NC(=O)N1CC#CC)C2 [Compound 9901] | 100 to 1000
COc1ccc2c(c1)C(=O)N(C[C@@]1(c3ccc(-c4ncccc4C)cc3)NC(=O)NC1=O)C2 [Compound 9902] | < 10
COc1ccc2c(c1)C(=O)N(C[C@@]1(c3ccc(-c4cnc5ccccc5n4)cc3)NC(=O)NC1=O)C2 [Compound 9906] | < 10
Cc1ccc(-c2ccc([C@@]3(CN4Cc5ccc(O)cc5C4=O)NC(=O)NC3=O)cc2)nc1 [Compound 9908] | 100 to 1000
COc1ccc2c(c1)C(=O)N(C[C@@]1(c3ccc(-c4ncccc4OC)cc3)NC(=O)NC1=O)C2 [Compound 9909] | < 10
COc1ccc2c(c1)C(=O)N(C[C@@]1(c3ccc(-c4nccnc4Cl)cc3)NC(=O)NC1=O)C2 [Compound 9913] | < 10
COc1ccc2c(c1)C(=O)N(C[C@@]1(c3ccc(-c4ncccc4C(F)(F)F)cc3)NC(=O)NC1=O)C2 [Compound 9914] | < 10
COc1ccc2c(c1)C(=O)N(C[C@@]1(c3ccc(-c4ncccc4F)cc3)NC(=O)NC1=O)C2 [Compound 9915] | < 10
COc1ccc2c(c1)C(=O)N(C[C@@]1(c3ccc(-c4nc5ccccc5nc4O)cc3)NC(=O)NC1=O)C2 [Compound 9916] | < 10
COc1ccc2c(c1)C(=O)N(C[C@@]1(c3ccc(-c4cc(C(F)(F)F)ccn4)cc3)NC(=O)NC1=O)C2 [Compound 9923] | < 10
